{
  "source": "paper PMC10280071",
  "about": "“Allelic variation in the indoleacetic acid-lysine synthase gene of the bacterial pathogen Pseudomonas savastanoi and its role in auxin production” (Frontiers in Plant Science, 2023)",
  "test_system": "NCCCC[C@H](N)C(=O)O",
  "assay": "purified protein",
  "conditions": "1 mM IAA fixed, lysine 0.01-10 mM, 1 mM ATP, 3 mM MgCl2, 100 mM KCl, 50 mM Tris-HCl pH 8.0, 25 °C",
  "data": [
    {"substance": "IaaLPsn-1 (Pseudomonas savastanoi pv. nerii)", "values": [
      {"measurement": "Km", "result": "1487 ± 431", "unit": "µM"},
      {"measurement": "Vmax", "result": 0.0107, "unit": "µmol/min/mg"},
      {"measurement": "Vmax/Km", "result": 7.2, "unit": "µL/min/mg"}
    ]}
  ]
}
